Data: patent US20160139118A1, “NOVEL ASSAY” (GLAXOSMITHKLINE INTELLECTUAL PROPERTY (NO.2) LIMITED, priority 2013, published 2016)

The chains behind the UniProt entries cited, without tags or fusion partners. Residues count along the entry.
UniProt P05156, 19-583: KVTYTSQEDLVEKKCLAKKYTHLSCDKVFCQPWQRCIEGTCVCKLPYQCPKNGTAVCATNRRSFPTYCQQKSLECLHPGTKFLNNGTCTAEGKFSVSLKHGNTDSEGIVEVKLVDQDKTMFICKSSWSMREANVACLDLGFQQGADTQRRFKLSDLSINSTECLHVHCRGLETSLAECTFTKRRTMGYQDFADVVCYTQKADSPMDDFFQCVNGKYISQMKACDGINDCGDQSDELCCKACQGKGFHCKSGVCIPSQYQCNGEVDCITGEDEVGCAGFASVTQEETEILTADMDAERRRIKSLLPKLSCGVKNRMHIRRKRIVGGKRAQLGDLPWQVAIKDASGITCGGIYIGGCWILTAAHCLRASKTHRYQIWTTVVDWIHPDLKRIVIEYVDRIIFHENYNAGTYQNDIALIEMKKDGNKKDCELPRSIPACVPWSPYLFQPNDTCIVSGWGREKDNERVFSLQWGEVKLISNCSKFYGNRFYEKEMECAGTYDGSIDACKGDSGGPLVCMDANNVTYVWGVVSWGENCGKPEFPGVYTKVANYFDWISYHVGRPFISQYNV

Target: Complement factor I, purified human serum protein (Complement Technology) (human) (UniProt P05156)
Experiment: cell-based or functional assay

**Q.** With “Amyloid Beta-Protein (1-42) (from UniProt P05067 672-713) (peptide)” as the substance, how does the EC50 of CFI in cofactor assay in the presence of 200 µM BAM1-42 (Lot 2, aged 7 days without sonication) read?
**A.** 3320 ng/mL

**Q.** What about the inhibition of CFI bioactivity, BAM 1-42 Lot 1 at day 3 and day 8 of the same substance?
**A.** 100%
